The target of assay [1] is T1, PAR-4 (Homo sapiens, UniProt Q96RI0).
T1 construct: endogenous in cells; host or cells: washed platelets
T1 sequence (Q96RI0 18-385): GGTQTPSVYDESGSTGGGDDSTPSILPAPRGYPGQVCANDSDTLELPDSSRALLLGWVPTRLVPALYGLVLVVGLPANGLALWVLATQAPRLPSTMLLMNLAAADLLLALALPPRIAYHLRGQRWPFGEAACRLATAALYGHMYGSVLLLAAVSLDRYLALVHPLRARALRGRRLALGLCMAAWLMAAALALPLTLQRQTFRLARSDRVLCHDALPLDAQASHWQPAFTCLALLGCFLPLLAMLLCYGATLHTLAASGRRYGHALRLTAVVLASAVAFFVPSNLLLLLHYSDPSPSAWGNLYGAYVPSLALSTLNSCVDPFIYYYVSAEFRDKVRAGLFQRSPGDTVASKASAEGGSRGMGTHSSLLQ
Kind of assay: PAC-1 binding assay, washed platelets stimulated with 100 nM gamma-thrombin (flow cytometry). Type of assay: cell-based. The text has this:
Gamma-thrombin is a proteolytic product of alpha-thrombin cleavage by a serine protease. Cleavage results in the disruption of exosite I which interacts directly with the hirudin-like domain of its primary substrates fibrinogen and protease-activated receptor 1 (PAR1). As a result, gamma-thrombin selectively cleaves PAR4 in the nanomolar range, leaving PAR1 intact. See Soslau, G., Class, R., Morgan, D. A., Foster, C., Lord, S. T., Marchese, P., and Ruggeri, Z. M. (2001) Unique pathway of thrombin-induced platelet aggregation mediated by glycoprotein Ib, The Journal of biological chemistry 276, 21173-21183. Gamma-thrombin (Enzyme Research Laboratories, South Bend, Indiana) is produced by trypsin-sepharose cleavage of alpha-thrombin. To neutralize alpha-thrombin contamination, stock solutions of gamma-thrombin are preincubated with 1 unit/mL hirudin prior 100 fold dilution into the sample for platelet stimulation. This concentration of hirudin is capable of abolishing alpha-thrombin activity with no effect on the activity of gamma-thrombin. See Soslau, G., Goldenberg, S. J., Class, R., and Jameson, B. (2004) Differential activation and inhibition of human platelet thrombin receptors by structurally distinct alpha-, beta- and gamma-thrombin, Platelets 15, 155-166. Single point screens and concentration response curves are conducted with 316 nanomolar or 100 nanomolar gamma-thrombin using PAC1 and CD62p binding.
(§1) PAC-1 Binding assay: 60 μL of washed platelets (Tyrodes buffer containing 0.1% BSA) at a concentration of 0.15×10^8 platelets/mL were added to 5 mL round bottom polystyrene tubes (BD, Franklin Lakes, N.J.). FITC conjugated PAC-1 (BD Biosciences, San Jose, Calif.) antibody was diluted (to the manufacturers recommended concentration) in Tyrode's buffer containing 0.1% BSA. 40 μL of diluted antibody was added to the platelets and allowed to incubate for 5 minutes. Platelets were pre-treated with indicated concentrations of antagonist or DMSO control for 20 minutes (the final DMSO concentration was 0.5%) followed by addition of PAR-1-AP (GL Biochem, Shanghai, China), PAR-4-AP, or gamma-thrombin for 10 minutes. Platelet activity was quenched by the addition ice cold 1.5% paraformaldehyde followed by dilution in 1× phosphate buffered saline. Platelets were stored up to 18 hours at 4° C. before flow cytometric analysis. Analysis was carried out on a BD FACS Canto II or BD LSRII (Franklin Lakes, N.J.). Fluorescent intensity was determined for at least 20,000 events within the platelet gate (forward scatter versus side scatter). Data was collected and analyzed via FACS DiVa or FlowJo software. Flow cytometric data analysis was conducted by the following method. The DMSO-vehicle treated control was subtracted from each data point. 100% response for PAR-4-AP was determined for each individual as the DMSO treated control stimulated with PAR-4-AP, PAR-1-AP, or gamma-thrombin. Data was plotted in GraphPad PRISM v.5.0. For compounds with a notable reduction in PAC-1 binding response, dose response curves and IC50 values were generated using the inhibitory sigmoidal dose response ‘variable slope’ parameter. Results were plotted as mean±SEM.

The target in assay [2] is T1, PAR-4. Briefly: PAC-1 binding assay, washed platelets stimulated with PAR-4-AP (flow cytometry). Type of assay: cell-based. As to conditions: PAR-4-AP stimulation, read-out: PAR-4 AP % Max PAC-1 binding (IC50 [M]). The protocol:
as §1
On the technique in general: In flow cytometry, cells or beads pass a laser one at a time.

SMILES strings stand for the structures. A value given as a limit tells only on which side of the number the result lay.

Turning to `COc1nn2cc(-c3ccc(OC(F)(F)F)cc3)nc2s1` [Example B27], the IC50 (commonly the concentration at which inhibition is half-maximal) was found to be 2.63e-07 M on PAR-4 [1] (100 nM γ-thrombin stimulation) and 1.24e-08 M at PAR-4 [2].

On to `COc1nn2cc(-c3ccc(Cl)cc3)nc2s1` [Example B19], for which the IC50 was found to be 5.9e-07 M on PAR-4 [1] (100 nM γ-thrombin stimulation) and 4e-08 M on PAR-4 [2].

With `COc1nn2cc(-c3c(F)cccc3F)nc2s1` [Example B4], the IC50 on PAR-4 [2] stood at 1.3e-06 M.

Regarding `COc1nn2cc(-c3ccc(Cl)c(Cl)c3)nc2s1` [Example B20], the IC50 at PAR-4 [1] (100 nM γ-thrombin stimulation) is 9.53e-07 M; on PAR-4 [2] it was 3e-08 M.

Regarding `COc1nn2cc(-c3cccc(C(F)(F)F)c3)nc2s1` [Example B3], the IC50 at PAR-4 [1] (100 nM γ-thrombin stimulation) is more than 1e-06 M; at PAR-4 [2], 4.6e-08 M.

Consider `COc1nn2cc(-c3ccc(C(F)(F)F)cc3)nc2s1` [Example B1], for which the IC50 at PAR-4 [1] (read-out: 100 nM γ-thrombin PAC-1 activity (IC50 [M]), 100 nM γ-thrombin stimulation) is 3.48e-07 M; at PAR-4 [2], 1.6e-08 M.

As for `COc1nn2cc(-c3ccc(F)c(C(F)(F)F)c3)nc2s1` [Example B29], the IC50 on PAR-4 [1] (100 nM γ-thrombin stimulation) was more than 1e-06 M; at PAR-4 [2] it was 6.88e-08 M.

For the origin of these results see patent US20190119300A1, “SUBSTITUTED AND FUSED 6-MEMBERED PROTEASE ACTIVATED RECEPTOR 4 (PAR-4) ANTAGONISTS” (Vanderbilt University, priority 2016, published 2019).
